Measured values taken from patent US20090060919A1.

The chains behind the UniProt entries cited, without tags or fusion partners. A line that says so, or that is headed by a name, gives the form on record, which may keep a tag or linker.
UniProt P01854, other isoform, or with tags, fused parts or gaps: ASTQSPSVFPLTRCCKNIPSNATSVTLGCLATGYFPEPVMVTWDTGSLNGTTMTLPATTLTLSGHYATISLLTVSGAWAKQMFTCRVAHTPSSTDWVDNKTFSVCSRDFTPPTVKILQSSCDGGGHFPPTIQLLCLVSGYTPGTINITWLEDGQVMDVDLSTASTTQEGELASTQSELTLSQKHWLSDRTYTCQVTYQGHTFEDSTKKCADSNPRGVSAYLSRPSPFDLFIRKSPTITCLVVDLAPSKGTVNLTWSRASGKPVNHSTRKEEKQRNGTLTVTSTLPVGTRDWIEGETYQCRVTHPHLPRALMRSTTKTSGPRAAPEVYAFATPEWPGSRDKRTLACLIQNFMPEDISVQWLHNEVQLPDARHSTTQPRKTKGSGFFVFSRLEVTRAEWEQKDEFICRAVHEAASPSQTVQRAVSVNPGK

Key:
[1] = target: IgE in human serum (human) (UniProt P01854); test: ELISA: free serum IgE captured on coated FcERI-Fc-His after mixing serum with antibody; same experiment
human IgE (human) = human IgE (human) (UniProt P01854); test: KinExA

Substance: Xolair (Omalizumab) (antibody)
- IC50 [1]: 0.057 µM
- Kd (human IgE (human)): 0.000353 µM
